Laboratory results taken from paper PMC5785997, “2-Phenylquinazolinones as dual-activity tankyrase-kinase inhibitors” (Scientific Reports, 2018).

Sequences of proteins named here, by UniProt entry; tags and fusion partners are left off. Residues count along the entry.
UniProt Q9H2K2, 959-1164: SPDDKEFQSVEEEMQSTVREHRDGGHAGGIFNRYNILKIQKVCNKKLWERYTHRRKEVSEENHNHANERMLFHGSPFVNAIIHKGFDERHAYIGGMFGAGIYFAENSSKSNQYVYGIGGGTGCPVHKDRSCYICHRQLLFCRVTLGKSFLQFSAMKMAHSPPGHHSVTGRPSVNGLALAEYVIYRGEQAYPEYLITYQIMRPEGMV

Molecular target: TNKS2 (Homo sapiens, UniProt Q9H2K2)
Test: NAD+ quantification activity assay, TNKS2
Format: biochemical
Experimental: The activity assay used to measure the potency of the compounds against TNKS2 is based on the quantification of NAD^+[38]. The reactions were carried out in 96-well plate (Greiner bio-one, U-shaped) and the conditions were the same as reported earlier (Table S5)[24].
The compounds were stored in 100% DMSO at −20 °C. All the compounds were diluted in the TNKS2 assay buffer (50 mM Bis-Tris Propane, 0.5 mM TCEP, 0.01% Triton-100x). Control reactions were used to exclude the effect of compound fluorescence and quenching from the calculations. […] The pIC50 values were calculated and fitted with nonlinear regression using 4-parameters with GraphPad Prism (version 5.0 for windows).
Protein (nM) NAD+ (nM) Incubation Buffer
Kinase [ATP] Substrate Incubation Reaction buffer

| pIC50 (Table 1, read-out: TNKS2 IC50 (shown for comparison)) | pIC50 (TNKS2 IC50, NAD+ 500 nM) | Compound |
| --- | --- | --- |
| 6.84 |  | Nc1ccc(-c2nc3ccccc3c(=O)[nH]2)cc1 [C00007] |
|  | 6.84 and 7.15 | Nc1ccc(-c2nc3ccccc3c(=O)[nH]2)cc1 [Compound 28] |

pIC50: −log10 of the molar value. Where “and” joins values, the source holds several entries; their conditions need not be identical. Equal values may be shown once. Read-outs that look alike come from different tables or passages of the source.
